Consider 1 molecule from paper PMC6411902, “RNF126 Quenches RNF168 Function in the DNA Damage Response” (Genomics, Proteomics & Bioinformatics, 2018).

The target in the test is T1, His-RNF168 (human).
T1 construct: RNF168, full length cDNA inserted into the SacI and XhoI sites of pET-28a; also called recombinant His-RNF168; bacterially-produced His-RNF168; source: E. coli, recombinant
Description: pull-down; bacterially-produced GST-RNF126 as bait; bacterially-produced His-RNF168. The following applies: both partners purified.

B1: GST-RNF126 (natural protein, human, UniProt Q9BV68 1-311, looked up)
chain: MAEASPHPGRYFCHCCSVEIVPRLPDYICPRCESGFIEELPEETRSTENGSAPSTAPTDQSRPPLEHVDQHLFTLPQGYGQFAFGIFDDSFEIPTFPPGAQADDGRDPESRRERDHPSRHRYGARQPRARLTTRRATGRHEGVPTLEGIIQQLVNGIITPATIPSLGPWGVLHSNPMDYAWGANGLDAIITQLLNQFENTGPPPADKEKIQALPTVPVTEEHVGSGLECPVCKDDYALGERVRQLPCNHLFHDGCIVPWLEQHDSCPVCRKSLTGQNTATNPPGLTGVSFSSSSSSSSSSSPSNENATSNS
notes: RNF126, full length cDNA subcloned into the BamHI and SalI sites of pGEX-6P-1; pGEX-6P-1 is surmised to put GST at the N-terminus; also called recombinant protein GST-RNF126; bacterially-produced GST-RNF126; source: E. coli, recombinant
For the molecule B1, the binding result is on record as “binds”.
